Assays:
[1] = system: α7-nAChR; conditions: in vivo; cited from earlier work
[2] = molecular target: T1, α7-nAChR (Mus musculus, UniProt P49582); conditions: taken from references or estimated as VT/VND -1 or (cortex uptake/cerebellum uptake) -1; cited from earlier work
[3] = molecular target: T1, α7-nAChR; conditions: subcutaneous blocking dose, 180 min, superior colliculus

Amino acid sequences for entries named in this document (tags omitted). Residues count along the entry.
UniProt P49582, 23-502: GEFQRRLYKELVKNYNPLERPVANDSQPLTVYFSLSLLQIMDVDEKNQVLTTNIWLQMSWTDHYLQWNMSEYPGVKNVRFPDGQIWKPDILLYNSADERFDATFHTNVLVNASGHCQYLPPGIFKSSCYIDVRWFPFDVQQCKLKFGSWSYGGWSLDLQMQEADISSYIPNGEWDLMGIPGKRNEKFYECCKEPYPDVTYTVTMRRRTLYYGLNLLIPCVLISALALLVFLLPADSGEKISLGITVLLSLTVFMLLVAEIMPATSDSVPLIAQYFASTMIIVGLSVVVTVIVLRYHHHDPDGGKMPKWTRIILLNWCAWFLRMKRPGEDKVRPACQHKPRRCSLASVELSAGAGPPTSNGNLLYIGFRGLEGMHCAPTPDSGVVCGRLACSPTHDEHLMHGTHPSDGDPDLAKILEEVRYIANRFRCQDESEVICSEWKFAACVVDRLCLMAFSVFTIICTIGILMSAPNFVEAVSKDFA

[11CH3]N1CC2CN(c3ccc(-c4ccccc4)nn3)CC2C1 (stereo not drawn)
BPND in cortex, Monkey or Pig [1]: 0.3

[11CH3]N1CC2CN(c3ccc4c(c3)C(=O)C3C=CC=CC3O4)CC2C1 (stereo not drawn)
BPND in cortex, Mice [2]: 0.6-0.7

[11CH3]c1ccc(OC(=O)N2CCN3CCC2CC3)cc1
BPND in cortex, Monkey or Pig [1]: 0.6

[11CH3]n1cccc1-c1nnc(N2CCN3CCC2CC3)o1
BPND in cortex, Monkey or Pig [1]: ~1

[18F]c1ccc(-c2nnc(N3CCN4CCC3CC4)o2)cc1
BPND in cortex, Monkey or Pig [1]: 0.8

O=C(Oc1ccc(Br)cc1)N1CCN2CCC1CC2 [Compound 1, reference compound]
inhibition of [125I]14 binding [3]: significantly inhibited
